Laboratory results: article PMC3743770, “A Selective HDAC 1/2 Inhibitor Modulates Chromatin and Gene Expression in Brain and Alters Mouse Behavior in Two Mood-Related Tests” (PLoS ONE, 2013)

The chains behind the UniProt entries cited, without tags or fusion partners. Where a name states a change or a piece, a line headed by the entry shows the natural chain unless it says otherwise.
UniProt Q9UBN7: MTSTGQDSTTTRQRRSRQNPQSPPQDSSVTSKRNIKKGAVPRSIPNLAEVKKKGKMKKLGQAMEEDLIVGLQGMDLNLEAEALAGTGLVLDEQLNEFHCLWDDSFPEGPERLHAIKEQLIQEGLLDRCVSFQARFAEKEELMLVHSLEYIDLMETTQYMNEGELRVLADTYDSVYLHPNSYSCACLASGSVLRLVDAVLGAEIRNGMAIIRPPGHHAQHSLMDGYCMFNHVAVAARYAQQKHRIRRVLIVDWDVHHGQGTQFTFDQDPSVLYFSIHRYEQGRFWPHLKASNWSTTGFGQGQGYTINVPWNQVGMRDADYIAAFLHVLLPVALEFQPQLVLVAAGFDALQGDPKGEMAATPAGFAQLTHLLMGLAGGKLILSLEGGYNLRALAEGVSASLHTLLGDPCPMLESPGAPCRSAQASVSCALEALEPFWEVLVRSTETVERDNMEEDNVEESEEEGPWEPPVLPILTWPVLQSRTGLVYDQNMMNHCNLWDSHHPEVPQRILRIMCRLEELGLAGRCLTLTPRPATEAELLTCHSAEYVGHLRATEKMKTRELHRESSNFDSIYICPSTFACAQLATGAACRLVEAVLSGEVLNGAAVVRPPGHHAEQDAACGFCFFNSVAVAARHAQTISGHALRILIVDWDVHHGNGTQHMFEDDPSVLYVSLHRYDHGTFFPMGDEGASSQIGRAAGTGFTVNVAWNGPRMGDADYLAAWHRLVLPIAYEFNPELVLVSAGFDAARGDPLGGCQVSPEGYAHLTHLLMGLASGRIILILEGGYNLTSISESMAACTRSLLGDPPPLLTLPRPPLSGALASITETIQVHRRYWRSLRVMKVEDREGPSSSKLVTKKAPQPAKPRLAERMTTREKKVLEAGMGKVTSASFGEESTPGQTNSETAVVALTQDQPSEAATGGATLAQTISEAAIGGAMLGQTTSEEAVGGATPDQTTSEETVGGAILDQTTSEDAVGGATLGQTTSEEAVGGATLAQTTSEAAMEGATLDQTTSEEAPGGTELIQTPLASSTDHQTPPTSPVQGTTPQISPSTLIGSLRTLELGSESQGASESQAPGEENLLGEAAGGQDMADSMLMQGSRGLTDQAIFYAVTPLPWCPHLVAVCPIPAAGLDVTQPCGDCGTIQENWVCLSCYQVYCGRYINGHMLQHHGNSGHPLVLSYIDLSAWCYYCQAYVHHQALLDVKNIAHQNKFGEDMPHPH

Target: HDAC6 (Homo sapiens, UniProt Q9UBN7)
Assay: biochemical

CC(=O)Nc1ccc(C(=O)Nc2cc(-c3cccs3)ccc2N)cc1 [Cpd-60]
IC50: > 30 µM
